Target: phalloidin-stabilized F-actin (rabbit, UniProt P68135 1-377)
Assay: co-sedimentation; 5 μM hDYS-ABD1 with phalloidin-stabilized F-actin (0–80 μM), with 100 μM cisplatin or 1% DMSO; F-buffer 10 mM Tris pH 7.5, 50 mM KCl, 0.2 mM ATP, 3 mM MgCl2, 0.5 mM DTT; 25 °C 30 min; centrifuged at 50K 30 min; SDS-PAGE of supernatant and pellet
Conditions: both partners purified

B1: human dystrophin actin-binding domain 1 fused to mClover3 (hDYS-ABD1-mClover3) (domain or fragment)
chain: MLWWEEVEDCYEREDVQKKTFTKWVNAQFSKFGKQHIENLFSDLQDGRRLLDLLEGLTGQKLPKEKGSTRVHALNNVNKALRVLQNNNVDLVNIGSTDIVDGNHKLTLGLIWNIILHWQVKNVMKNIMAGLQQTNSEKILLSWVRQSTRNYPQVNVINFTTSWSDGLALNALIHSHRPDLFDWNSVVCQQSATQRLEHAFNIARYQLGIEKLLDPEDVDTTYPDKKSILMYITSLFQVLPQQVSIE
notes: The introduction gives ABD1 as residues 1-246 of dystrophin in general; mClover3 (FRET donor) is fused to the C-terminus of ABD1; Cloned into pDT68 (pET-derived, N-terminal 6His then Sumo); also called mClover3-ABD1; dystrophin ABD1; source: E. coli BL21, purified (NiNTA, ULP1 cleavage of 6His-Sumo, size-exclusion chromatography); not shown: 6His, N-terminal, cleaved; Sumo, N-terminal, cleaved; …
- fold difference of kD from the hyperbolic fits, cisplatin against DMSO: 1.7 fold
